The values below come from PubChem BioAssay AID720551 (National Center for Advancing Translational Sciences (NCATS), 2013).

Sequences of proteins named here, by UniProt entry; tags and fusion partners are left off. A change or cut given only in a name is not applied to a line headed by its entry.
UniProt Q12809: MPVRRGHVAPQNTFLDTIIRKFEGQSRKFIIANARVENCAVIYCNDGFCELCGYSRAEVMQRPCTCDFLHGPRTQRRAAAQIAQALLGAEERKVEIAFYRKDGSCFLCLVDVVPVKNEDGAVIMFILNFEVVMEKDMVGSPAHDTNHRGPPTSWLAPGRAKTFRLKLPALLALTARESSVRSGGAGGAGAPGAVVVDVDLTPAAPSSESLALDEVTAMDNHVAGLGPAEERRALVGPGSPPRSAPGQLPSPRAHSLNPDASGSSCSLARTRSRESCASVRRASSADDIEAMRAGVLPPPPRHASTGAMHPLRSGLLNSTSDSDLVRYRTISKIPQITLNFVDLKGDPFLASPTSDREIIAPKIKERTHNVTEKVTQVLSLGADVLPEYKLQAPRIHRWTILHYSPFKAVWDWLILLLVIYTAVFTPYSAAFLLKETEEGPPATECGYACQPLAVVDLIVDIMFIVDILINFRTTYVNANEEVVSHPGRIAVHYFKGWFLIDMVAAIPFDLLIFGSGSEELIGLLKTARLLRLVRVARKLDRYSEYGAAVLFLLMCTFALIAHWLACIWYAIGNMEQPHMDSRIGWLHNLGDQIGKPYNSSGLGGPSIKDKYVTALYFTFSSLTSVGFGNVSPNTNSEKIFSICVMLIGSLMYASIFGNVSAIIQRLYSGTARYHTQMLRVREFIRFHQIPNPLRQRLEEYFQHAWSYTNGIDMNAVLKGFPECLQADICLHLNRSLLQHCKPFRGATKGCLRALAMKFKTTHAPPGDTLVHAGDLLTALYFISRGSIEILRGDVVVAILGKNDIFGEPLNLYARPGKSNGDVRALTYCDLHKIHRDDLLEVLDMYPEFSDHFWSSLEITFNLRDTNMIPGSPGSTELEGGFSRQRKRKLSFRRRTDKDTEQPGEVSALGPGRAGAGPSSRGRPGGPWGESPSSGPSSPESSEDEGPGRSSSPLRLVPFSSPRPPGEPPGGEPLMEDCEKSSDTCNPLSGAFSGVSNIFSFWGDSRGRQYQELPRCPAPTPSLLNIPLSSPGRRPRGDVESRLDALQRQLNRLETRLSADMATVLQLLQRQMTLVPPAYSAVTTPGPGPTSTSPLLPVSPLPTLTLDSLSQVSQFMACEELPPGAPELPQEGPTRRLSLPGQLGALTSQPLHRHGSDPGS

SMILES strings stand for the structures. Only a part is listed here, and it is no random draw. Calls of active or inactive are those of the source.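 How the source made its calls: active means maximum activity change below -70%; inconclusive means maximum activity change between -70% and -50%; inactive means maximum activity change above -50%.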
On the % scale 0 is the no-effect control and ±100 the full control effect.

The target of this experiment is Voltage-gated inwardly rectifying potassium channel KCNH2 (Homo sapiens) (UniProt Q12809). The experiment is described as follows: qHTS for Inhibitors of KCHN2 3.1: Wildtype qHTS. As to conditions: U2OS, BacMam KCNH2, thallium flux FluxOr; at 1.84 µM; stronger effect = lower value. The source says: Many antipsychotic drugs that inhibit the neurotransmitter dopamine also bind to hERG1 channel which might help explain their antipsychotic activity but also produces cardiac side effects. The discovery of the novel KCNH2 3.1 isoform offers a potential new target for the development of antipsychotic drugs without cardiac side effects. This proposal will use a high throughput thallium flux assay developed for KCNH2 to screen compounds that modulate the activity of KCNH2 3.1. The wild type KCNH2 channel will also be screened in parallel to help define the selective modulators of this KCNH2 3.1 potassium channel. The resulting compounds will be validated in electrophysiology experiments. The availability of animal models will allow future testing in vivo for effects on memory and other aspects of animal physiology linked with psychosis. NIH Chemical Genomics Center [NCGC] NIH Molecular Libraries Probe Centers Network [MLPCN] MLPCN Grant: MH096539 Assay Submitter (PI): James Barrow, Johns Hopkins University, Lieber Institute for Brain Development
U2OS cells were resuspended in cell media containing 10% fetal calf serum (FCS) at a concentration of 2 million cells / mL. The solution was treated with the Wild-type virus at 2.03 x 10^8 / mL and allowed to incubate at room temperature in the dark. After 4 hours of incubation, DMEM + 10% fetal bovine serum (FBS) was added to the cell solution. Three microliter was then dispensed into a 1536 tissue culture treated black assay plates which were incubated overnight at 37 C. Two microliter of loading buffer (HBSS + HEPES + Red40 dye quencher + FluxOr dye) was added and the assay plates were incubated for 45 min at room temperature in the dark. Twenty-three nanoliter of test compounds and positive control Haloperidol (46 uM final concentration) were added to the assay plate followed by a kinetic read (180 sec) using the Hamamatsu FDSS reader. A stimulation buffer was added to the plate and the second kinetic read (2 min) was obtained. The rate constant was calculated from the kinetic reads and normalized to the positive and negative DMSO controls.
As to `CCOC(=O)C1=C[C@]2(CC)CCCN3CCc4c(n1c1ccccc41)[C@@H]32`, the activity change is active: -93.6%.
As for `CC(C)COCC(CN(Cc1ccccc1)c1ccccc1)N1CCCC1` (configuration not stated), the activity change was active: -79.6%.
As for `CN1CCC[C@@H]1CCO[C@](C)(c1ccccc1)c1ccc(Cl)cc1`, the activity change was active: -125%.
For `O=C(CCCN1CCC(O)(c2cccc(C(F)(F)F)c2)CC1)c1ccc(F)cc1`, the activity change is active: -122%.
The same measure for `O=C(CCCN1CCC(O)(c2ccc(Cl)cc2)CC1)c1ccc(F)cc1`: active: -111%.
Take `CCNC(=O)N1CCN(CCCC(c2ccc(F)cc2)c2ccc(F)cc2)CC1`: the activity change was active: -137%.
Take `CN1CCCC1CCOC(C)(c1ccccc1)c1ccc(Cl)cc1` (configuration not stated): the activity change is active: -143%.
